# Test results published in PubChem BioAssay.
# Protein sequences, listed by entry. Tags and fused reporters are not part of them. Lines headed by an entry give the natural chain unless they say otherwise; changes in a name come on top.
# UniProt Q16828: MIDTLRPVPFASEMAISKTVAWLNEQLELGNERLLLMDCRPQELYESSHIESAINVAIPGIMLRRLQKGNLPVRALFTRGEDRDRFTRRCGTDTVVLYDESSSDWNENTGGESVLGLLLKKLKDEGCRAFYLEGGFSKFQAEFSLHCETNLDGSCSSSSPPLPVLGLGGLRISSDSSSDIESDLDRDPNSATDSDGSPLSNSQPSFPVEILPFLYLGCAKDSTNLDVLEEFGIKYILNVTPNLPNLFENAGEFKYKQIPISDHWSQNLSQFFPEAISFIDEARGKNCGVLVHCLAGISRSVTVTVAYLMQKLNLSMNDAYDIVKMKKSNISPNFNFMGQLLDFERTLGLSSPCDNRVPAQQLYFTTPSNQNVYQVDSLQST
# Some of the results follow. Activity calls are given as the source filed them.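 The calls were made as follows: active = compounds giving at least 50% inhibition in the cell-based MKP-3 phosphatase rescue imaging test; inactive = the rest.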
# Biological target: Dual specificity protein phosphatase 6 (Homo sapiens) (UniProt Q16828)
# Assay: DUSP6 inhibitors restoring Erk phosphorylation by chemical complementation, primary imaging in DUSP6-transfected HeLa (AID 609);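 also: phospho-Erk level distribution per well compared with pooled transfected vehicle control wells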
# Settings: HeLa MKP-3 transfected, phospho-Erk imaging KS statistic; at 10 µM; stronger effect = higher value; cells stimulated with TPA for 15 min
row,Structure (SMILES),inhibition
1,Cc1cccc(OCC(=O)OC2CN3CCC2CC3)c1 (configuration not stated),inactive: -4.59%
2,Cc1ccc(OCC(=O)OC2CN3CCC2CC3)cc1 (configuration not stated),inactive: -8.76%
